Reference: US9994554B2, “Barbiturate and thiobarbiturate compounds for use in cancer therapy” (NUHOPE, LLC, priority 2011, dated 2018)

Protein sequences, listed by entry. Tags and fused reporters are not part of them. Lines headed by an entry give the natural chain unless they say otherwise; changes in a name come on top.
UniProt P11388: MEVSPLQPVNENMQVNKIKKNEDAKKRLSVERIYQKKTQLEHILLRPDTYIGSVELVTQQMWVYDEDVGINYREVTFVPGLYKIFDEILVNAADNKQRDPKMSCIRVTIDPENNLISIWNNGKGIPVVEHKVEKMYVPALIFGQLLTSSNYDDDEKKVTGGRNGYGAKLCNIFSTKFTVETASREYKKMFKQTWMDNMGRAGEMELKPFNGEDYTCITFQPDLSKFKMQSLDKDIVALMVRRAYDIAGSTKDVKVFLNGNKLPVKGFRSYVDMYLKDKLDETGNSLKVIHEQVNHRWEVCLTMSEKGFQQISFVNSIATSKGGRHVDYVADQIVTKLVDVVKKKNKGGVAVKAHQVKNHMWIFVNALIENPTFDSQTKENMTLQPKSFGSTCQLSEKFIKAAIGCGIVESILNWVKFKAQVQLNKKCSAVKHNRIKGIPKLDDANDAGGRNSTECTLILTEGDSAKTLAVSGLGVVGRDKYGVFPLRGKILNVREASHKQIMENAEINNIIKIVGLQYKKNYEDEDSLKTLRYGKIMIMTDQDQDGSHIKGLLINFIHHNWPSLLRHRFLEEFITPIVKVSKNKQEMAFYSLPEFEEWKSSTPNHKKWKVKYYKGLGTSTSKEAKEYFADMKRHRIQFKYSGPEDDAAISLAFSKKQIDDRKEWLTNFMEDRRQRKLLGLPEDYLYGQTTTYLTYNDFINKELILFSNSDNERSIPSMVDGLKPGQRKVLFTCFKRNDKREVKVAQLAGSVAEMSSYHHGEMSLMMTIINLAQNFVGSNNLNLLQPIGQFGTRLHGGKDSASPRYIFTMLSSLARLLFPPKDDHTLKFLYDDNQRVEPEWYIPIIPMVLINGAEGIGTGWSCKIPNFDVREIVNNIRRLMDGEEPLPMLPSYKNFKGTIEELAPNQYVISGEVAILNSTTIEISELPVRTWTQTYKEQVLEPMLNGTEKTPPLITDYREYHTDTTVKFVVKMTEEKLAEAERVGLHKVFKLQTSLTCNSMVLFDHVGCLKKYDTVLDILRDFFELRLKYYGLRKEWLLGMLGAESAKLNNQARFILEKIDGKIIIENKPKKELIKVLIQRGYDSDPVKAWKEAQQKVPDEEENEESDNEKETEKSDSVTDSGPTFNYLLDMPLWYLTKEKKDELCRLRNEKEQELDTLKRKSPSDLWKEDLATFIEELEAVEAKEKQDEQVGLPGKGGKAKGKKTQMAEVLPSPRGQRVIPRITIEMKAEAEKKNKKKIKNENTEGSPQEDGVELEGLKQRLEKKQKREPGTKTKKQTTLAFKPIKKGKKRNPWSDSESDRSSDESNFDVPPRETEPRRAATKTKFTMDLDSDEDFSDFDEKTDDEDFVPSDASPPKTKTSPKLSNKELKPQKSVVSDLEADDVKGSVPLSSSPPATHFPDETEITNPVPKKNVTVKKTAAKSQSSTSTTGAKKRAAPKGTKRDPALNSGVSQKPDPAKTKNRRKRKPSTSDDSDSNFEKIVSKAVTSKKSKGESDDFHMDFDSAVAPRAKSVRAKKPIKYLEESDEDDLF

Target: topoisomerase IIα (Homo sapiens, UniProt P11388)
Assay: Supercoiled pHOT1 DNA relaxation assay
Format: biochemical
Conditions: 1 mM, positive control
Source text: To determine whether CC-I is a specific inhibitor of topoisomerase I or IIα, the ability of CC-I to inhibit topoisomerases I and IIα activity was examined using a supercoiled DNA relaxation assay.

COc1cc([C@@H]2c3cc4c(cc3[C@@H](O[C@@H]3O[C@@H]5CO[C@@H](C)O[C@H]5[C@H](O)[C@H]3O)[C@H]3COC(=O)[C@H]23)OCO4)cc(OC)c1O [etoposide, reference compound] was tested, and the “inhibition of topoisomerase IIα catalyzed pHOT1 relaxation” value was “completely inhibited”.
